Experimental findings from US20140349852A1, “METABOLIC CONTROL OF SEED GERMINATION” (Oregon State University, priority 2010, published 2014) are described below.

Series [1] has as its system AGE:NCED6 seeds. Put plainly: Germination test of imbibed AGE:NCED6 seeds. It counts as in vivo, Arabidopsis thaliana. Particulars: 10 μM fluridone with Intrepid®2F. The method, then: Briefly, for the induction of AGE:NCED6 plants at ˜10 rosette stages, diluted (×10,000), Intrepid®2F (Dow AgroSciences) solution which contained 62 μM MOF as an active ingredient was applied directly to the soil in pots containing Arabidopsis seedlings by drenching. Seedling were harvested two days after induction and frozen at −80° C. before RNA extraction. For the induction experiments in imbibed seeds, seeds were placed in 9 cm plastic petri dishes on two layers of filter paper (No. 2, Whatman Inc) moistened with 3.5 mL water or Intrepid®2F (×10,000) and incubated at 4° C. for 3 days and at 22° C. for 29 h (gene expression analysis) or 5 days (germination tests). For germination recovery, 10 μM fluridone was included with Intrepid®2F.

Series [2] deals with AGE:NCED6 transgenic Camelina seeds. Put plainly: Germination test of Camelina AGE:NCED6 seeds. The following applies: MOF and fluridone. Format: in vivo, Camelina sativa. As for the experimental part:
For the induction experiment in imbibed seeds, seeds were placed in 9 cm plastic petri dishes on two layers of filter paper (No. 2, Whatman Inc.) moistened with 4 mL water or (122.6 μM or 2×10,000) MOF or 1 mM ABA and incubated at 4° C. for overnight and at 22° C. for 72 h (germination tests and gene expression analysis). For germination recovery, 10 M fluridone was included.
To determine whether there was an effect of the AGE: NCED6 expression vector on the ability of transgenic seeds to undergo germination, wild-type and homozygous seeds from transgenic plant lines, 16-12, 17-17, and 13-12, were imbibed for three days in the presence or absence of MOF. […] Control seeds of non-transgenic plants were shown the same in the presence or absence of MOF. Germination of Camelina seeds is observed initially as ruptured testa followed by emergence of the […] when the radicle emerges.

Turning to fluridone, in series [1], the “herbicidal effect on seedlings from induced AGE:NCED6 seeds” value was “etiolated”. Moreover, the “herbicidal effect on seedlings from induced AGE:NCED6 Camelina seeds” value in series [2] was “etiolated”.
